Earlier results in article PMC4615734 (Theranostics, 2015).

Details: standard FDG-PET

## OC[C@H]1OC(O)[C@H](F)[C@@H](O)[C@@H]1O (some centres unmarked) [FDG, ^18F-fluoro-deoxy-glucose]
  effective dose: approximately 0.019 mSv/MBq
300 MBq
  effective dose at a dose of 300 MBq: 5.7 mSv
